# What was measured:
# Chains of the proteins cited; added tags and fusions are not shown. Residues count along the entry.
# UniProt P08709, 61-212 limits assumed: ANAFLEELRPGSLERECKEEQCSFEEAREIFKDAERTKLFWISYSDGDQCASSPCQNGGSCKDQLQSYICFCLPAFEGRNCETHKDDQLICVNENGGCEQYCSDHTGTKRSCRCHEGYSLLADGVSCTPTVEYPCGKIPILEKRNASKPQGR
# UniProt P08709, 213-466 limits assumed: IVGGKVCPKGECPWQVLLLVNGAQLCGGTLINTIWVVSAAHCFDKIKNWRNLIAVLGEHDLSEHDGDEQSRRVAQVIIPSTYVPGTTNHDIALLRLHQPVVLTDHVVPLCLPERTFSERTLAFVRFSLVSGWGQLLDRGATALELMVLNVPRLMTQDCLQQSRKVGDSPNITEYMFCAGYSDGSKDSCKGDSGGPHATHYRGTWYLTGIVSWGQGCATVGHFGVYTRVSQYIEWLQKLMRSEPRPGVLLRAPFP
# UniProt P00742, 41-179 limits assumed: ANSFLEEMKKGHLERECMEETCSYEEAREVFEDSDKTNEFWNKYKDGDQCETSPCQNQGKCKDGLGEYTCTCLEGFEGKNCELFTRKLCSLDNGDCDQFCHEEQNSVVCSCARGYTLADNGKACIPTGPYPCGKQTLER
# UniProt P00742, 235-488 limits assumed: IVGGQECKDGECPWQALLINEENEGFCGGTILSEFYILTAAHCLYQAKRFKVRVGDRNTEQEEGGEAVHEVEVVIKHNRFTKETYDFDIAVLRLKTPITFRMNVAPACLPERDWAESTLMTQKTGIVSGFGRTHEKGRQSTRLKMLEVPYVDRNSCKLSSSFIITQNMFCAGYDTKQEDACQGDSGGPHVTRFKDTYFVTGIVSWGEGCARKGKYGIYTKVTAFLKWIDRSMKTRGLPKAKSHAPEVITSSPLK
# [1] = biological target: TF-VIIa (Homo sapiens, UniProt P08709); assay: TF-VIIa Assay
# [2] = biological target: Human factor Xa (Homo sapiens, UniProt P00742)
% Inhibition TF-VIIa (100 µM) [1],% Inhibition Factor Xa (100 µM) [2] [%],Compound
0%,–,O=C(Cn1c(-c2ccc(-c3ccccc3)cc2)c(Cl)nc(NCCc2cccc(Cl)c2)c1=O)NCCc1ccncc1 [Example E-0051]
–,3,O=C(Cn1c(-c2ccc(-c3ccccc3)cc2)c(Cl)nc(NCCc2ccccc2)c1=O)NCCc1cccnc1 [Example E-0113]
is,–,O=C(Cn1c(-c2ccc(-c3ccccc3)cc2)c(Cl)nc(NCCc2cccc(Cl)c2)c1=O)NCCc1ccncc1 [Example E-0115]
